Experimental data from ChEMBL document CHEMBL1140844, “2-[(3-Methoxyphenylethyl)phenoxy]-based ABCB1 inhibitors: effect of different basic side-chains on their biological properties” (J Med Chem, 2008).

Chains of the proteins cited; added tags and fusions are not shown.
UniProt P08183, whole entry: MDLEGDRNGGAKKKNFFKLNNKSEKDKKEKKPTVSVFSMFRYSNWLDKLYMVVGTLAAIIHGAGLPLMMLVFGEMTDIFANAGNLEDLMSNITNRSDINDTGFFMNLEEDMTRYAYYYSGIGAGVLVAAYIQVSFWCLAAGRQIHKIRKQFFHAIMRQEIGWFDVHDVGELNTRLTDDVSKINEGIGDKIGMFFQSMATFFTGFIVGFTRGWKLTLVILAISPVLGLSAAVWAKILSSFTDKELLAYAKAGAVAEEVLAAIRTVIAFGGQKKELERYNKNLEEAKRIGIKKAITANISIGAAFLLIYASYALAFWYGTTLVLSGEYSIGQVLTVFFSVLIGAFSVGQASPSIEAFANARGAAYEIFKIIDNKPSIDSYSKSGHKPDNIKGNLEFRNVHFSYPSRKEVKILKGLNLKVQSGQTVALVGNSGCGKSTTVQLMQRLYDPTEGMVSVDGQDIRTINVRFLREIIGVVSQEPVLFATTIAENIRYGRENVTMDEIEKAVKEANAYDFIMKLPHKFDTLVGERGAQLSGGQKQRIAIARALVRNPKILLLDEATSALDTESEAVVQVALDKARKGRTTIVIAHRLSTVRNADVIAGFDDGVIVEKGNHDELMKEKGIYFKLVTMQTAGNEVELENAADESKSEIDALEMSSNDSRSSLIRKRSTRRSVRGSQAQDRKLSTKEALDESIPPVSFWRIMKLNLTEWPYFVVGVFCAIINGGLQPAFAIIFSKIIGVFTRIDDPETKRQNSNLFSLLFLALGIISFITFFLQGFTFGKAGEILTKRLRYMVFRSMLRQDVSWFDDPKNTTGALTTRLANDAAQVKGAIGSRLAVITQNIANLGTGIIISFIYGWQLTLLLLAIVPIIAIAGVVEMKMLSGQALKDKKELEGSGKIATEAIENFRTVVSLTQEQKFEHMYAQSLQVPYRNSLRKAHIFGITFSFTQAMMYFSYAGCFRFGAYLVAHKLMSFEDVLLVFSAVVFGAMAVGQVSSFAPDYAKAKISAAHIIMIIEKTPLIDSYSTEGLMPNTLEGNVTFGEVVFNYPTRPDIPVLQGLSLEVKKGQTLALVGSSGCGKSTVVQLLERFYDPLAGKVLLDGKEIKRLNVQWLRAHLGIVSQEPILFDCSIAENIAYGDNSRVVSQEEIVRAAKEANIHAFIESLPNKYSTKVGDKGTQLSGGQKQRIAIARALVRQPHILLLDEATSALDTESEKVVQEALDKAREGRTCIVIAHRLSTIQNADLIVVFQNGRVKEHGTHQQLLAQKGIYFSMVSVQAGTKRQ

Columns and labels:
[1] = target: T1, ATP-dependent translocase ABCB1 (Homo sapiens, UniProt P08183); experiment: Inhibition of ABCB1-mediated [3H]vinblastine transportation in human Caco-2 cells; assay type: cell-based
Summary of the method: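 Caco-2 monolayers grown 21 days (TEER >800 Ω × cm²). 20 nM [3H]vinblastine added to the basolateral side with or without compound (200 nM–400 µM) for 120 min at 37 °C. Appearance on the apical side measured by scintillation counting. IC50 from nonlinear fit. Mean of three experiments, triplicate samples.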

Caco-2 = experiment: Ratio of apparent permeability from basolateral to apical over apical to basolateral side of human Caco-2 cells after 120 mins by UV-visible spectroscopy; settings: caco-2, 2 h
[2] = target: T1, ATP-dependent translocase ABCB1; experiment: Inhibition of ABCB1
[3] = target: T1, ATP-dependent translocase ABCB1; experiment: Inhibition of ABCB1 transfected in MDCK cells assessed as increase in calcein-AM accumulation; assay type: cell-based
Summary of the method: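 MDCK-ABCB1 cells (50000/well) grown to confluence overnight. Preincubated with compound in medium for 30 min at 37 °C, then 2.5 µM calcein-AM (final) for 30 min. Washed with ice-cold PBS and fluorescence read at ex 485/em 535 nm. IC50 fitted from % fluorescence increase over untreated cells vs log dose. Mean of three experiments, triplicate samples.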

Structure (SMILES)	IC50 [1]	Ratio (Caco-2)	IC50 [2]	IC50 [3]
COc1cccc(CCc2ccccc2OCCN2CCN(c3ncccn3)CC2)c1	2000 nM	6.6		
COc1cccc(CCc2ccccc2OCCCCCN2CCN(c3cccc(Cl)c3)CC2)c1	2650 nM	6.2		
COc1cccc(CCc2ccccc2OCCCCN2CCN(c3ccc(F)cc3)CC2)c1	1200 nM	3.5		
COc1cccc(CCc2ccccc2OCCCN2CCN(c3ccc(F)cc3)CC2)c1	5300 nM	2.5		
COc1cccc(CCc2ccccc2OCc2cccc(OC)c2OC)c1			250 nM	
COc1cccc(CCc2ccccc2OCCCCCN2CCN(c3ccc(F)cc3)CC2)c1	2120 nM	5.1		
COc1cccc(CCc2ccccc2OCCCCN2CCc3ccccc3C2)c1	80 nM	6.9		1780 nM
